The values below come from ChEMBL document CHEMBL5154779, “Exploration of novel phthalazinone derivatives as potential efflux transporter inhibitors for reversing multidrug resistance and improving the oral absorption of paclitaxel” (Eur J Med Chem, 2022).

Chains of the proteins cited; added tags and fusions are not shown. Lines headed by an entry give the natural chain unless they say otherwise; changes in a name come on top.
UniProt Q9UNQ0: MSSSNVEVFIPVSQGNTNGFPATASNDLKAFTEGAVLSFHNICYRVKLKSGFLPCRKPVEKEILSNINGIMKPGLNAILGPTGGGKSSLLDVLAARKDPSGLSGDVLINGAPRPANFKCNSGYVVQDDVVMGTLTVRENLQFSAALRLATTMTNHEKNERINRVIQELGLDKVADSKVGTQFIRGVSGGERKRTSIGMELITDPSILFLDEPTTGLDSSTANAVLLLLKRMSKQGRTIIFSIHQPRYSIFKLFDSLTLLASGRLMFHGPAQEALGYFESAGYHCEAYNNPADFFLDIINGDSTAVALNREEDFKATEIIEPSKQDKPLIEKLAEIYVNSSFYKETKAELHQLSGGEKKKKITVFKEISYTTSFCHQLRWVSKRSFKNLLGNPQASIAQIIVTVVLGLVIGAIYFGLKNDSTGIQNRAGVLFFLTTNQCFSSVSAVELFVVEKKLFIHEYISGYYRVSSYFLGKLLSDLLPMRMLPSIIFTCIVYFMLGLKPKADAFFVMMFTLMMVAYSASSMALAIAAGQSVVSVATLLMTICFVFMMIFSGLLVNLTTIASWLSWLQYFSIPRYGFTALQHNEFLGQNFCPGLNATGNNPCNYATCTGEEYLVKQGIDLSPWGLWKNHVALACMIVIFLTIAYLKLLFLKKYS

Molecules are shown by their SMILES.

For this assay, the target named is Broad substrate specificity ATP-binding cassette transporter ABCG2 (Homo sapiens, UniProt Q9UNQ0). In words: Inhibition of BCRP (unknown origin).

Consider `COc1cc2ncnc(Nc3ccc(F)c(Cl)c3)c2cc1OCCCN1CCOCC1` [GEFITINIB], for which the EC50 (commonly the concentration that produces a half-maximal response) was found to be 0.3 µM.
